Laboratory results taken from US20190231751A1, “TREATMENT OF FIBROTIC DISORDERS WITH JUN N-TERMINAL KINASE INHIBITORS” (Imago Pharmaceuticals, Inc., priority 2016, published 2019).

Chains of the proteins cited; added tags and fusions are not shown.
UniProt P53779, whole entry, species assumed: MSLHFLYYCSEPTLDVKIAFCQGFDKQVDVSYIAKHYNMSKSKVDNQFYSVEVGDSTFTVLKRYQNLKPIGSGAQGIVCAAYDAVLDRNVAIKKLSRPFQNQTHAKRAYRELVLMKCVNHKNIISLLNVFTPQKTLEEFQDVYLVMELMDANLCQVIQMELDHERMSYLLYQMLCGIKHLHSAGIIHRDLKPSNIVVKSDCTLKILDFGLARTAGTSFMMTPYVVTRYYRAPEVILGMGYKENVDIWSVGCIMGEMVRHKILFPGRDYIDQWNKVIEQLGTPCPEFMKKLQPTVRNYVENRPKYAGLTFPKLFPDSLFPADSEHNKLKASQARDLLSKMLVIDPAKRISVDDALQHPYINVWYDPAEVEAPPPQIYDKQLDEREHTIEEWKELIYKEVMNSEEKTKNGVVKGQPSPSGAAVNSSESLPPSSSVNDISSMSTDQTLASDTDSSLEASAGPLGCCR
UniProt P45983, whole entry, species assumed: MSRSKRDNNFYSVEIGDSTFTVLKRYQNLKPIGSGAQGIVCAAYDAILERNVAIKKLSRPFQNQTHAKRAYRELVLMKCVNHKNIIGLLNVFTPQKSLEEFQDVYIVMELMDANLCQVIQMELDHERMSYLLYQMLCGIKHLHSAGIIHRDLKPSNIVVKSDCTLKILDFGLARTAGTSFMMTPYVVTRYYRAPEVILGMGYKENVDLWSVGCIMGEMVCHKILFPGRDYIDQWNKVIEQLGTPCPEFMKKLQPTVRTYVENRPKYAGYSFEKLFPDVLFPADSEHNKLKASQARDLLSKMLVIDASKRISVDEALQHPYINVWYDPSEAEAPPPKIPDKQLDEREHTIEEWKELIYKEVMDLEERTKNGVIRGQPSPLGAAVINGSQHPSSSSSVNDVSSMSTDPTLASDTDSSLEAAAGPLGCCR

Assays:
[1] = biological target: JNK3 (Homo sapiens, UniProt P53779); test: In vitro JNK3 inhibition (Table 1); type: biochemical
Method: (§1) In vitro assays for the determination of JNK activities are known in the art and exemplary assay formats are described herein.
(§2) IC50 values in Table 1 were determined using the procedures as described in U.S. Pat. No. 8,450,353.

[2] = biological target: JNK1 (Homo sapiens, UniProt P45983); test: In vitro JNK1 inhibition (Table 1); type: biochemical
Method: as §1, §2

IC50 [1]	IC50 [2]	SMILES
0.1 to 10 µM	0.1 to 10 µM	COc1ccc(CC(=O)Nc2ccsc2-c2nc(C)n[nH]2)cc1 [2-(4-methoxyphenyl)-N-(2-(3-methyl-1H-1,2,4-triazol-5-yl)thiophen-3-yl)acetamide]
0.1 to 10 µM	0.1 to 10 µM	COc1ccc(CC(=O)Nc2ccsc2-c2ncco2)cc1 [2-(4-methoxyphenyl)-N-(2-(oxazol-2-yl)thiophen-3-yl)acetamide]
0.1 to 10 µM	0.1 to 10 µM	Cn1ncnc1-c1ncsc1NC(=O)Cc1cccc2cnccc12 [2-(isoquinolin-5-yl)-N-(4-(1-methyl-1H-1,2,4-triazol-5-yl)thiazol-5-yl)acetamide]
0.1 to 10 µM	0.1 to 10 µM	O=C(Cc1ccc2c(c1)OCCO2)Nc1ccsc1-c1ncn[nH]1 [N-(2-(1H-1,2,4-triazol-5-yl)thiophen-3-yl)-2-(2,3-dihydrobenzo[b][1,4]dioxin-6-yl)acetamide]
0.1 to 10 µM		O=C(Cc1cccc2ccccc12)Nc1ccsc1-c1cc[nH]n1 [N-(2-(1H-pyrazol-3-yl)thiophen-3-yl)-2-(naphthalen-1-yl)acetamide]
0.1 to 10 µM	0.1 to 10 µM	Cc1noc(-c2sccc2NC(=O)Cc2cccc3ccccc23)n1 [N-(2-(3-methyl-1,2,4-oxadiazol-5-yl)thiophen-3-yl)-2-(naphthalen-1-yl)acetamide]
0.1 to 10 µM	0.1 to 10 µM	Cc1cc(-c2sccc2NC(=O)Cc2cccc3ccccc23)n[nH]1 [N-(2-(5-methyl-1H-pyrazol-3-yl)thiophen-3-yl)-2-(naphthalen-1-yl)acetamide]
0.1 to 10 µM	0.1 to 10 µM	COc1ccc(CC(=O)Nc2sccc2-c2nn[nH]n2)cc1 [N-(3-(2H-tetrazol-5-yl)thiophen-2-yl)-2-(4-methoxyphenyl)-acetamide]
